Experimental data from article PMC11414412, “Design and synthesis new indole-based aromatase/iNOS inhibitors with apoptotic antiproliferative activity” (Frontiers in Chemistry, 2024).

Columns and labels:
iNOS = target: T1, iNOS (Homo sapiens, UniProt P35228); test: NOS inhibition assay (L-citrulline, fluorometric detection), iNOS; format: biochemical; conditions: read-out: Enzyme percent inhibition, positive control
T1 construct: purchased Enzo Life Sciences, Inc. (New York, USA)
Method: (§1) The investigated compounds were tested at 1 µM against the iNOS and 10 µM against the eNOS to determine their isoform selectivity. Because of its critical role in cardiovasculature, inhibiting the constitutive enzyme eNOS should be avoided.
(§2) Refer to Supplementary Appendix SA1 for more details.
(§3) 4.2.4. NOS inhibition assay
(§4) Recombinant human iNOS was purchased from Enzo Life Sciences, Inc. (New York, USA).
(§5) Recombinant bovine eNOS was purchased from Cayman Chemical (Ann Arbor, USA). To measure iNOS activity, 10 μL of enzyme stock solution were added to 80 μL of 2-[4-(2-hydroxyethyl) piperazin-1-yl]ethanesulfonic acid (HEPES) buffer pH = 7.4, 100 mM, containing 0.1 mM CaCl2, 1 mM D,L-dithiothreitol (DTT), 0.5 mg/mL BSA, 10 μM flavin mononucleotide (FMN), 10 μM flavin adenine dinucleotide (FAD), 30 μM tetrahydrobiopterin (BH4), 10 μg/mL calmodulin (CaM), 10 μM L-Arg. For the eNOS activity evaluation, 25 μL of the enzyme stock solution were added to 65 μL of HEPES buffer containing 2 mM CaCl2 and the same cofactors […]
(§6) μM) were added to the enzyme assay solution, followed by pre -incubation of 15 min at 37 ◦C.
(§7) Each reaction was initiated by the addition of 10 μL of NADPH 7.5 mM, carried out at 37 ◦C for 30 min, and stopped by adding 500 μL of ice -cold CH3CN. The mixture was brought to dryness under vacuum and eventually stored at – 20 ◦C, before the HPLC analysis. […]

eNOS = target: T2, eNOS (Bos taurus, UniProt P29473); test: NOS inhibition assay (L-citrulline, fluorometric detection), eNOS; format: biochemical, bovine
T2 construct: purchased Cayman Chemical (Ann Arbor, USA)
Method: as §1, §2, §3, §4, §5, §6, §7

inhibition at 10 µM (iNOS): 100%
IC50 (eNOS): > 50 µM
Structure (SMILES): CC(=N)NCc1cccc(CN)c1 [1400 W, reference compound]
